molecular target: RPB1, the largest subunit of RNA polymerase II (Pol II) (human (endogenous in HCT-116)) (UniProt P24928); assay: co-IP; nuclear fraction of HCT-116 RAD21-mAID cells (Benzonase lysis, washes with 200 mM NaCl, 0.1% NP-40); cells treated with DRB for 3 h and harvested 20 min after DRB removal, with or without auxin (RAD21 depletion); Pol II precipitated with antibodies against RPB1 CTD or Ser2-phosphorylated …; blots of PAF1, CDC73, CTR9

Row | level co-precipitated after auxin treatment, percent of control, normalized to RPB1 [%] | Substance
1 | 75 | CTR9 (from UniProt Q6PD62 1-1173) (natural protein)
2 | 59 | PAF1 (from UniProt Q8N7H5 1-531) (natural protein)
3 | 55 | CDC73 (from UniProt Q6P1J9 1-531) (natural protein)

Reference: PMC13503787
